The target in this experiment is Acetylcholinesterase (Homo sapiens, UniProt P22303). The experiment in a line: Reactivation of POX-inhibited human recombinant AChE assessed as dissociation rate constant using ATC as substrate incubated for 60 mins followed by substrate addition by Ellman's method based spectrophotometry. Background: Ellman's reagent forms a yellow product with free thiols.

By UniProt entry, the sequences of proteins in these tests, tags left out. Residues count along the entry.
UniProt P22303, 32-614 limits assumed: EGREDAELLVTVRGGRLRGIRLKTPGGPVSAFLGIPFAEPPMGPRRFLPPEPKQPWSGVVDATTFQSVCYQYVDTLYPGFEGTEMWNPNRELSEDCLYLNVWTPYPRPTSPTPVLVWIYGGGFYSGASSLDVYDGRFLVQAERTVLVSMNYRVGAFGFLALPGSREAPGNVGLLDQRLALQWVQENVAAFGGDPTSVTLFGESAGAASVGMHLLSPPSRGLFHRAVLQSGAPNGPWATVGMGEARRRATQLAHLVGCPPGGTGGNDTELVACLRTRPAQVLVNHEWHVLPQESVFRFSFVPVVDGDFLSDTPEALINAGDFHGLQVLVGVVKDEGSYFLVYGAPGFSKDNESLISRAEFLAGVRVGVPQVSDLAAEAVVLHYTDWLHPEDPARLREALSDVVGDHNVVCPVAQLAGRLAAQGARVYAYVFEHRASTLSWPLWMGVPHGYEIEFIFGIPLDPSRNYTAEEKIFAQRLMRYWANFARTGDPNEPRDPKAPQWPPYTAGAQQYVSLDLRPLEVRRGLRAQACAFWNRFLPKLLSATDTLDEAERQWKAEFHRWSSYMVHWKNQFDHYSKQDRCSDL

SMILES strings stand for the structures.

Consider `Cc1cc(=O)n(C)c(=O)n1CCCCn1cnc(C(=O)NO)n1`, for which the dissociation constant Kd (in general, the concentration at which binding is half-saturated) worked out at 60.6 mM.

Regarding `Cc1cc(=O)n(C)c(=O)n1CCCCCn1cnc(C(=O)NO)n1`, the dissociation constant Kd stood at 5.5 mM.

Values taken from BindingDB's records for 31675511.
